Measured values reported in publication PMC7163917 (European journal of medicinal chemistry, 2020).

Tested on: PC 12 cell cultures
Settings: PC12 cells

| Structure (SMILES) | differentiation and migration functions | toxicity in PC 12 cell cultures |
| --- | --- | --- |
| O=C(O)c1cccc2c1NC(c1ccc(F)cc1)C1CC(Sc3ccccc3[N+](=O)[O-])C(Cl)C21 (stereo not shown) [ST2–5] | increased level of differentiation and migration functions | no toxicity |
| Cc1cc(C(=O)O)ccc1-c1ccc(C=C2C(=O)c3ccccc3C2=O)o1 [ST3–5] | increased level of differentiation and migration functions | no toxicity |
